The assay concerns facialis arteries. In words: Endothelial-dependent (ACh-induced) vasodilation of isolated facialis arteries from treated SS mice. The following applies: 2.72 mg/kg/d, subcutaneous, 3 weeks. The method, then:
Effects of hE-HMGB1-BP on vasodilation, eNOS-dependent vasodilation, and plasma HMGB1. Townes SS mice were treated daily with hE-HMGB1-BP (Biomatik Corp., Kitchener, Ontario; 2.72 mg/kg/d, subcutaneous injection) for three weeks. On the day of the vasodilation studies, mice were anesthetized with isoflurane (1-3%), subjected to thoracotomy, and euthanized by exsanguination. A hypodermic needle was inserted into the heart's right side, and blood was drawn into EDTA. Plasma was separated by centrifugation. The plasma was divided into aliquots and stored at −80 °C until analysis for HMGB1 using ELISA kits from Tecan (30164033, Männedorf, Switzerland) as described. Facialis arteries were isolated by microdissection, cannulated, and pressurized to 60 mmHg. Changes in vasodilation of (5Z)-7-[(1R,4S,5S,6R)-6-[(1E,3S)-3-hydroxy-1-octenyl]-2-oxabicyclo[2.2.1]hept-5-yl]-5-heptenoic acid (U46619)-preconstricted, pressurized facialis arteries were determined by video microscopy in response to acetylcholine (Ach) (10-7-10-4 M) as before. After determining vasodilation in the absence of N(G)-nitro-L-arginine methyl ester (L-NAME), the bath's MOPS physiological buffer [CaC12 2H2O (2.0 mM), EDTA (0.02 mM), glucose (5.0 mM), KCl (4.7 mM), MgSO4·7H2O (1.17 mM), MOPS (3.0 mM), NaCl (145 mM), NaH2PO4OH2O (1.2 mM), pyruvic acid (2.0 mM)] was replaced with 37 °C MOPS physiological buffer containing L-NAME (100 μM) and Ach-induced relaxation responses determined once again, as above. eNOS-dependent vasodilation was determined from the area between curves (ABC). The area between vasodilation curves in the absence and presence of L-NAME was calculated using the area under the curve function in Prism GraphPad 9.5.0 after correction of paired data for negative relaxation responses. […]
Effects of inhibiting GSNOR on vasodilation in SS mice. […] Relaxation responses to Ach (10-7 to 10 4 M) were determined in MOPS physiological buffer in the absence and presence of L-NAME by video microscopy as described. […]

`CC[C@H](C)[C@H](NC(=O)CNC(=O)[C@H](CCCCN)NC(=O)[C@@H](NC(=O)[C@H](CC(=O)O)NC(=O)[C@H](Cc1ccccc1)NC(=O)[C@H](CC(N)=O)NC(=O)[C@H](CC(N)=O)NC(=O)[C@H](C)NC(=O)[C@H](CO)NC(=O)[C@H](Cc1c[nH]cn1)NC(=O)[C@H](C)NC(=O)CNC(=O)CNC(=O)[C@H](CCCNC(=N)N)NC(=O)[C@H](CC(C)C)NC(=O)[C@H](CC(C)C)NC(=O)[C@H](CCCNC(=N)N)NC(=O)[C@H](CCCCN)NC(=O)[C@H](CCCNC(=N)N)NC(=O)[C@H](CC(C)C)NC(=O)[C@H](CCCCN)NC(=O)[C@H](CCCNC(=N)N)NC(=O)[C@H](CC(C)C)NC(C)=O)C(C)C)C(N)=O`: the “endothelial-dependent vasodilation versus AA mice” value (ns, p=0.1071) is recorded as “essentially equivalent to the endothelial-dependent vasodilation in AA mice”. Besides, the “increase in endothelial-dependent vasodilation versus SS+PBS mice” value (p<0.0001) was “more than 2.5 times”.

The record behind these values is patent publication US20260382690A1, “Dual-Domain Peptide for Depleting HMGB1 from the Circulation via Liver HSPG System” (published 2026).
